Experiments:
Format in all cases: cell-based
[1] = molecular target: Epidermal growth factor receptor (Homo sapiens, UniProt P00533, L858R/T790M); assay: Inhibition of EGFR L858R/T790M mutant phosphorylation in human patient derived H1975 cells incubated for 3 hrs by ELISA method
[2] = molecular target: Epidermal growth factor receptor (Homo sapiens, UniProt P00533); assay: Inhibition of wild type EGFR phosphorylation in human HaCaT cells incubated for 3 hrs by ELISA method
[3] = molecular target: Epidermal growth factor receptor (Homo sapiens, UniProt P00533, L858R); assay: Inhibition of EGFR L858R mutant phosphorylation in human patient derived H3255 cells incubated for 3 hrs by ELISA method

Amino acid sequences for entries named in this document (tags omitted). Residues count along the entry.
UniProt P00533, 25-1210 T790M/L858R limits assumed: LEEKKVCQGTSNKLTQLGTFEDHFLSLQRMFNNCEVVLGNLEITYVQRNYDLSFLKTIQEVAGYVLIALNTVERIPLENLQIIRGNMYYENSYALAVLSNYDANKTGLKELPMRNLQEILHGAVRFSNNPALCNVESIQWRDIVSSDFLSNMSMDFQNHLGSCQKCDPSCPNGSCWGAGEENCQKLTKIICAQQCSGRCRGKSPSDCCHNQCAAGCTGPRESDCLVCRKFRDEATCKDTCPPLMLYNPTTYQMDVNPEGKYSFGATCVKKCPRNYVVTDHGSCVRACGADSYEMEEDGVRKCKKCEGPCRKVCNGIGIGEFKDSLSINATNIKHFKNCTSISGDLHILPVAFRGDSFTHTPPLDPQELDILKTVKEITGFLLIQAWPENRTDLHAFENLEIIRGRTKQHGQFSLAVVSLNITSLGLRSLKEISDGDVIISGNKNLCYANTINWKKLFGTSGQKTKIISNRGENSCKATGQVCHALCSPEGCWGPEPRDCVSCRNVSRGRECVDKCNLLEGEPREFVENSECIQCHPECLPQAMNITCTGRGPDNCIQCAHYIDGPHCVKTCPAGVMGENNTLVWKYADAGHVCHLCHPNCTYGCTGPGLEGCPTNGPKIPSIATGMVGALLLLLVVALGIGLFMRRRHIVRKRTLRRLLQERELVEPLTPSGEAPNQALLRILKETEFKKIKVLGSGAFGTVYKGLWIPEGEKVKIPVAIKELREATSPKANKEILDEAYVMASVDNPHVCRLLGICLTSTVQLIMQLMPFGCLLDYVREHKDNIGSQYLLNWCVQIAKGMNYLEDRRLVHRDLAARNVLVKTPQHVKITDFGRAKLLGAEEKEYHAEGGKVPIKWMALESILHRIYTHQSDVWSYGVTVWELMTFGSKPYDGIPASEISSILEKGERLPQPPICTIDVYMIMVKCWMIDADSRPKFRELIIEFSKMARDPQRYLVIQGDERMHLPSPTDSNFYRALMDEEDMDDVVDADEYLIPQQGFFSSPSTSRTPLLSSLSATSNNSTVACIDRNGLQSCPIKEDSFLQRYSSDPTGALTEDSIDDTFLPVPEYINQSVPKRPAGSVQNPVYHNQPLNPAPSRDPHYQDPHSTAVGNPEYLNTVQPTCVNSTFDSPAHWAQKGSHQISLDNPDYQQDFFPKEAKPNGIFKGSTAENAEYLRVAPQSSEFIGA
UniProt P00533, whole entry: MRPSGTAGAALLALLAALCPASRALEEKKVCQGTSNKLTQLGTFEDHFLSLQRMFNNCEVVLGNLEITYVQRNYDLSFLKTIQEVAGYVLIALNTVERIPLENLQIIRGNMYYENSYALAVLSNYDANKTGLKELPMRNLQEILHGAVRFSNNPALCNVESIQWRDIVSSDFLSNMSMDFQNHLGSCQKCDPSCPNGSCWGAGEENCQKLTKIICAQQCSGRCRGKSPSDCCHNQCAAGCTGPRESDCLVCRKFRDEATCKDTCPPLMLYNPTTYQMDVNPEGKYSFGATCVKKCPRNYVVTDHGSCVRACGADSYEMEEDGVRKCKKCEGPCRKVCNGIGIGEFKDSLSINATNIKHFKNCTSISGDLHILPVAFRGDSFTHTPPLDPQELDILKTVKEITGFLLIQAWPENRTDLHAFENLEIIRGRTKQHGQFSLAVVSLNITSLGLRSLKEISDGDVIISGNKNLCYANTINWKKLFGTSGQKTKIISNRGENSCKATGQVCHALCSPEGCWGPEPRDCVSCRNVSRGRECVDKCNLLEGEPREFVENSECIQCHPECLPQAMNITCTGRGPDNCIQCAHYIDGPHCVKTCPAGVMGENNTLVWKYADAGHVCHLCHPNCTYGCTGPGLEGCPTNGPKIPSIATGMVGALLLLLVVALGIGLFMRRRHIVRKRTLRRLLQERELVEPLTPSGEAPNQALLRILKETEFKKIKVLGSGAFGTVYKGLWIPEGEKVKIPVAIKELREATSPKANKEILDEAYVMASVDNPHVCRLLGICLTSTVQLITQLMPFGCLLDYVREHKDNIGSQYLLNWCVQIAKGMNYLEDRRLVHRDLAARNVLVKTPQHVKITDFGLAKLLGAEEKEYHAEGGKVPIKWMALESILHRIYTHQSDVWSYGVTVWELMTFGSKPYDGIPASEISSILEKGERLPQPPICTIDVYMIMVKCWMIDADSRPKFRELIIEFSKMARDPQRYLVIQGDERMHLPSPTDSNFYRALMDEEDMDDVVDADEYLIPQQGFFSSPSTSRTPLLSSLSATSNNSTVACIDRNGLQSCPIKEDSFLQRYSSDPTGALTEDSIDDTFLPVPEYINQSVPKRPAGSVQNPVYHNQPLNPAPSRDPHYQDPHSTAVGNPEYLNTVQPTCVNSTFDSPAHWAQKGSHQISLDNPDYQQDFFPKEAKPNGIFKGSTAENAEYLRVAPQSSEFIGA
UniProt P00533, 25-1210 L858R limits assumed: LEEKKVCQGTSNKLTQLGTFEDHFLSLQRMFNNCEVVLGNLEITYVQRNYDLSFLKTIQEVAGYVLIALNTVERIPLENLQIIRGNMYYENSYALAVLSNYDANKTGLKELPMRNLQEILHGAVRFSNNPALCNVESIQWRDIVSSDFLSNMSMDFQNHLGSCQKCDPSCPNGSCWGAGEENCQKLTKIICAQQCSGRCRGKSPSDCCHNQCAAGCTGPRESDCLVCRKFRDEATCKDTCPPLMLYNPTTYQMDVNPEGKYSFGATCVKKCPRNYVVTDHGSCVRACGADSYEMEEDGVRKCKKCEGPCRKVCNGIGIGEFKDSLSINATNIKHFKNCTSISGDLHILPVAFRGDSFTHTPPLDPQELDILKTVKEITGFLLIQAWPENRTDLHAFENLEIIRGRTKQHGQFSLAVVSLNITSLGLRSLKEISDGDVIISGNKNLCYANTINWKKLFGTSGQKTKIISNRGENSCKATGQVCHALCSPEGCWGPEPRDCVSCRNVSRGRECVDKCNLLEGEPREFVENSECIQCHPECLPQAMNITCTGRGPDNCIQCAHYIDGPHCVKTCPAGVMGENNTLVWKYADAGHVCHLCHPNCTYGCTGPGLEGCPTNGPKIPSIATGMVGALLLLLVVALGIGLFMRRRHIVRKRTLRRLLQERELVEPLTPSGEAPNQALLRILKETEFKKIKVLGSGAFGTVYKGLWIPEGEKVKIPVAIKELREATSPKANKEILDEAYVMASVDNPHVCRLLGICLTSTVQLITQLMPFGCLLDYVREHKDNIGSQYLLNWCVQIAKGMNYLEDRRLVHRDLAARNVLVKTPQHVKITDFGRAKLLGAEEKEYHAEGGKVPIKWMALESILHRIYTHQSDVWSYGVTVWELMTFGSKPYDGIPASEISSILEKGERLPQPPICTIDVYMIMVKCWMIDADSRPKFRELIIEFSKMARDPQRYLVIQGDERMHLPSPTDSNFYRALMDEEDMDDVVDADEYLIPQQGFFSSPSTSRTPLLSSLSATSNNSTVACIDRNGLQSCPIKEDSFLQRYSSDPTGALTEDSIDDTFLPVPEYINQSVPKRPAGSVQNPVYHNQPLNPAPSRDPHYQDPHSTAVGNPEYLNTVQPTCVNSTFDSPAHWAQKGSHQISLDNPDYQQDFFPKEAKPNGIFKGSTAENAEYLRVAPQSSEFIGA

- IC50 [1]: 4.18 nM
- IC50 [2]: 161 nM
- IC50 [3]: 6.11 nM
Compound: Cc1cc(C(=O)Nc2nc3cccc(Cl)c3n2[C@@H]2CCCCN(C(=O)/C=C/CN(C)C)C2)ccn1 [NAZARTINIB]
